## Apparent affinities of Ab-14 variants for a coronavirus HR2 peptide

Data: MIT Lincoln Laboratory AlphaSeq set, Engelhart et al. 2022, doi:10.1038/s41597-022-01779-4, as distributed in FLAb.

The target is the same throughout: PDVDLGDISGINAS, from the HR2 region of SARS-CoV-2 spike.

Each scFv is VH, the linker GGGGSGGGGSGGGGS, VL, as in the parent Ab-14, and differs from it in the CDRs of the heavy chain only.
VH: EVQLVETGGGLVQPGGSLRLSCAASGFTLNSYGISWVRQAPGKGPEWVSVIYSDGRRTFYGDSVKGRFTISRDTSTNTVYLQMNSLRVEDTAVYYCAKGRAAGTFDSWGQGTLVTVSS
VL: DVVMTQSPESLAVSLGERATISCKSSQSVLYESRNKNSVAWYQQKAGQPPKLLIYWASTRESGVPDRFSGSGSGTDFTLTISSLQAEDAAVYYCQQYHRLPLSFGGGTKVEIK

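Phage display of a naive human antibody library on the peptide gave the parent. The library (AAYL49) carries one to three amino acid substitutions per variant, with no insertions or deletions. In AlphaSeq, yeast of one mating type display the scFv and yeast of the other type display the target. After mating in shaken culture at 30 °C for 16 h, diploids were selected and their barcode pairs sequenced. A regression on co-assayed BCL2-family reference pairs converts the normalised counts of each replicate to an apparent Kd. Mating was done three times.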

Each variant's VH is given in full.
Every variant below is changed at S31 of the VH (sequential numbering).
The Kd shown is the geometric mean over detected replicates; a lower Kd is a better binder.
"nd" means that the variant was in the library but no mating with the target was seen in any replicate; the authors take this as a sign of poor binding, and no number exists.
Background: pairings of library AAYL49 with three empty control strains gave a value in 15% of cases (median 11 µM, 5th percentile 680 nM). Values in that range, when seen in few replicates, are hard to tell from nonspecific mating. For each scFv, signals with the empty controls are counted beside the result.

Variant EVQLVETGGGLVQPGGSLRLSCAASGFTLNQYGISWVRQAPGKGPEWVSVIYSDLRRTFYGDSVDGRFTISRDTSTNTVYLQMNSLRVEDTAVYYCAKGRAAGTFDSWGQGTLVTVSS gave nd (0 of 3 replicates; controls 2 of 9).
Variant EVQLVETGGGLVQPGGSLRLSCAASGFTLNRYGISWVRQAPGKGPEWVSVIYGDGRRTFYGDSVWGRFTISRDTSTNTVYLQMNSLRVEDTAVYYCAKGRAAGTFDSWGQGTLVTVSS gave 170 µM (1 of 3 replicates; controls 2 of 9).
Variant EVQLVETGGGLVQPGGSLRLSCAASGFTLNGYGISWVRQAPGKGPEWVSVIYSDGRRTFYGDSNKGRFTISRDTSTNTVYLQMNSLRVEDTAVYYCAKLRAAGTFDSWGQGTLVTVSS gave 9.7 µM (2 of 3 replicates; controls 2 of 9).
Variant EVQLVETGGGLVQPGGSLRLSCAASGFTLNAYGISWVRQAPGKGPEWVSVIYSDGRRTFGGDSVKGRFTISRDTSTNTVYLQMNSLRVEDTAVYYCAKGRAAMTFDSWGQGTLVTVSS gave nd (0 of 3 replicates; controls 0 of 9).
Variant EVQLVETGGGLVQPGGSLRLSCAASGFTLNKYGISWVRQAPGKGPEWVSVIYSDGRRQFYGYSVKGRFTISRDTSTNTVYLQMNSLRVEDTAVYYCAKGRAAGTFDSWGQGTLVTVSS gave nd (0 of 3 replicates; controls 0 of 9).
Variant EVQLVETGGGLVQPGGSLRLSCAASGFTLNEYGISWVRQAPGKGPEWVSVIYSDGRRTFYGDSVKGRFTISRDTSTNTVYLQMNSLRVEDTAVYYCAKTRAAGTFDSWGQGTLVTVSS gave nd (0 of 3 replicates; controls 0 of 9).
Variant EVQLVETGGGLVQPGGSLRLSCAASGFTLNTYGISWVRQAPGKGPEWVSVIDSDGRRTFYGDSVKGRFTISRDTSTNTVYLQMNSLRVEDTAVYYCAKGRAAGTFSSWGQGTLVTVSS gave nd (0 of 3 replicates; controls 2 of 9).
Variant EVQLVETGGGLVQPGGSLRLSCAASGFTLNKYGIHWVRQAPGKGPEWVSVIYSDGRRTFYGDVVKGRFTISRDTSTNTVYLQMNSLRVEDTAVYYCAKGRAAGTFDSWGQGTLVTVSS gave 24 nM (3 of 3 replicates; controls 0 of 9).
Variant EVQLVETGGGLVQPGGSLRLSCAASGFTLNAYGISWVRQAPGKGPEWVSVIYSDGRRTFYGDSVKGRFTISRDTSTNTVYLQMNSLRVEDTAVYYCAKGRAAGTFDFWGQGTLVTVSS gave 46 nM (3 of 3 replicates; controls 0 of 9).
Variant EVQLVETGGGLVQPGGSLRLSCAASGFTLNLYGISWVRQAPGKGPEWVSVIYSDGRFTFYWDSVKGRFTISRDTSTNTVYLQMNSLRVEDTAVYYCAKGRAAGTFDSWGQGTLVTVSS gave 85 µM (1 of 3 replicates; controls 4 of 9).
Variant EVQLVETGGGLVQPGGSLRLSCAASGFTLNVYGNSWVRQAPGKGPEWVSVIYSDGRRTFYGDHVKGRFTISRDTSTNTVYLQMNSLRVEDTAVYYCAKGRAAGTFDSWGQGTLVTVSS gave nd (0 of 3 replicates; controls 2 of 9).
Variant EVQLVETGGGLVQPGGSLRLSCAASGFTLNAYGISWVRQAPGKGPEWVSNIYSDGRRTFYGDSYKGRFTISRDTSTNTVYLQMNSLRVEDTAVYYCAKGRAAGTFDSWGQGTLVTVSS gave nd (0 of 3 replicates; controls 2 of 9).
Variant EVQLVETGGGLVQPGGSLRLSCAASKRTLNMYGISWVRQAPGKGPEWVSVIYSDGRRTFYGDSVKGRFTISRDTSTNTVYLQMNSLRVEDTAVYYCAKGRAAGTFDSWGQGTLVTVSS gave nd (0 of 3 replicates; controls 0 of 9).
Variant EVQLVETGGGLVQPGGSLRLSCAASGFTLNHYWIMWVRQAPGKGPEWVSVIYSDGRRTFYGDSVKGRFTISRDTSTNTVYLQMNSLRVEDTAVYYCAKGRAAGTFDSWGQGTLVTVSS gave 170 µM (1 of 3 replicates; controls 2 of 9).
Variant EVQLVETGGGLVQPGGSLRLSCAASGFDLNQYGISWVRQAPGKGPEWVSVIYSDGRRTFYGDSVKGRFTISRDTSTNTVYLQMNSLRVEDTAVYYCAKNRAAGTFDSWGQGTLVTVSS gave 1.3 µM (2 of 3 replicates; controls 1 of 9).
Variant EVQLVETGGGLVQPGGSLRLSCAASGFTLQRYGISWVRQAPGKGPEWVSVIYSDGRRTFYGDSVKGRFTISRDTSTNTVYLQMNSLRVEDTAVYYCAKGRAGGTFDSWGQGTLVTVSS gave 170 nM (3 of 3 replicates; controls 0 of 9).
Variant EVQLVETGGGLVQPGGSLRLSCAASGFTLNCYGINWVRQAPGKGPEWVSDIYSDGRRTFYGDSVKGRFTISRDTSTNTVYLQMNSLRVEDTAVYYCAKGRAAGTFDSWGQGTLVTVSS gave nd (0 of 3 replicates; controls 1 of 9).
Variant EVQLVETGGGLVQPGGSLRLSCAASGFTLNWYGISWVRQAPGKGPEWVSVIYSDGRRTFYGDSVKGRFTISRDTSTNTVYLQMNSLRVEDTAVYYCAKGQAAKTFDSWGQGTLVTVSS gave 7.4 µM (2 of 3 replicates; controls 0 of 9).
Variant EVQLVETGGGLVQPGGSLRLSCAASGLTLNFYGISWVRQAPGKGPEWVSVIYSDGRRTFYGDSVKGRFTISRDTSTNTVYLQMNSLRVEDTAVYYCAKHRAAGTFDSWGQGTLVTVSS gave 4.0 µM (3 of 3 replicates; controls 0 of 9).
Variant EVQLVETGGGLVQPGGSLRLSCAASGFTLNRYGISWVRQAPGKGPEWVSVIYSDQRRTFYGYSVKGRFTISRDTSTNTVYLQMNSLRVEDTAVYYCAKGRAAGTFDSWGQGTLVTVSS gave nd (0 of 3 replicates; controls 0 of 9).
Variant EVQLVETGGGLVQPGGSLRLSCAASGFTLNGYGISWVRQAPGKGPEWVSTIYSDGRRTFYGDSVKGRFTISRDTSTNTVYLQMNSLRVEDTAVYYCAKQRAAGTFDSWGQGTLVTVSS gave nd (0 of 3 replicates; controls 0 of 9).
Variant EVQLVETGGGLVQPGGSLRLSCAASGFTLNWYGISWVRQAPGKGPEWVSVIYSDGRRTFYGDGVKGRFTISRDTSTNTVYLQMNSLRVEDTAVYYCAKGRAAGTFDSWGQGTLVTVSS gave 4.9 µM (1 of 3 replicates; controls 0 of 9).
Variant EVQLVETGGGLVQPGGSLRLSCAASGFTLNVYGISWVRQAPGKGPEWVSVIYSDGRRTFVGDSVKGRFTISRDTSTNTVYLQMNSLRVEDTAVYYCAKGRTAGTFDSWGQGTLVTVSS gave 23 nM (3 of 3 replicates; controls 0 of 9).
Variant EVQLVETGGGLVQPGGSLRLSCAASGFTLNDYGISWVRQAPGKGPEWVSVIYSDGRRTFYGDAVKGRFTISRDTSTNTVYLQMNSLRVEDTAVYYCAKGRAAGTFSSWGQGTLVTVSS gave 3.8 nM (3 of 3 replicates; controls 2 of 9).

The first 3 entries again:

The variant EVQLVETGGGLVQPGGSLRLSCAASGFTLNQYGISWVRQAPGKGPEWVSVIYSDLRRTFYGDSVDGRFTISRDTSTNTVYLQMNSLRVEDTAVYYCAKGRAAGTFDSWGQGTLVTVSS gave nd (0 of 3 replicates; controls 2 of 9).
The variant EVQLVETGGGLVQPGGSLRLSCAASGFTLNRYGISWVRQAPGKGPEWVSVIYGDGRRTFYGDSVWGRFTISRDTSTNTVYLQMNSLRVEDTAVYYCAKGRAAGTFDSWGQGTLVTVSS gave 170 µM (1 of 3 replicates; controls 2 of 9).
The variant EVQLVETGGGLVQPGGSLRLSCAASGFTLNGYGISWVRQAPGKGPEWVSVIYSDGRRTFYGDSNKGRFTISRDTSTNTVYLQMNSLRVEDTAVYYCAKLRAAGTFDSWGQGTLVTVSS gave 9.7 µM (2 of 3 replicates; controls 2 of 9).

In this assay the parent's reference entry averaged 4.4 nM; its copy inside this library read 13 µM (one replicate of three).